# Laboratory results as given in the supplement of paper PMC11403291.
# Protein sequences, listed by entry. Tags and fused reporters are not part of them. Lines headed by an entry give the natural chain unless they say otherwise; changes in a name come on top.
# UniProt P00533, whole entry: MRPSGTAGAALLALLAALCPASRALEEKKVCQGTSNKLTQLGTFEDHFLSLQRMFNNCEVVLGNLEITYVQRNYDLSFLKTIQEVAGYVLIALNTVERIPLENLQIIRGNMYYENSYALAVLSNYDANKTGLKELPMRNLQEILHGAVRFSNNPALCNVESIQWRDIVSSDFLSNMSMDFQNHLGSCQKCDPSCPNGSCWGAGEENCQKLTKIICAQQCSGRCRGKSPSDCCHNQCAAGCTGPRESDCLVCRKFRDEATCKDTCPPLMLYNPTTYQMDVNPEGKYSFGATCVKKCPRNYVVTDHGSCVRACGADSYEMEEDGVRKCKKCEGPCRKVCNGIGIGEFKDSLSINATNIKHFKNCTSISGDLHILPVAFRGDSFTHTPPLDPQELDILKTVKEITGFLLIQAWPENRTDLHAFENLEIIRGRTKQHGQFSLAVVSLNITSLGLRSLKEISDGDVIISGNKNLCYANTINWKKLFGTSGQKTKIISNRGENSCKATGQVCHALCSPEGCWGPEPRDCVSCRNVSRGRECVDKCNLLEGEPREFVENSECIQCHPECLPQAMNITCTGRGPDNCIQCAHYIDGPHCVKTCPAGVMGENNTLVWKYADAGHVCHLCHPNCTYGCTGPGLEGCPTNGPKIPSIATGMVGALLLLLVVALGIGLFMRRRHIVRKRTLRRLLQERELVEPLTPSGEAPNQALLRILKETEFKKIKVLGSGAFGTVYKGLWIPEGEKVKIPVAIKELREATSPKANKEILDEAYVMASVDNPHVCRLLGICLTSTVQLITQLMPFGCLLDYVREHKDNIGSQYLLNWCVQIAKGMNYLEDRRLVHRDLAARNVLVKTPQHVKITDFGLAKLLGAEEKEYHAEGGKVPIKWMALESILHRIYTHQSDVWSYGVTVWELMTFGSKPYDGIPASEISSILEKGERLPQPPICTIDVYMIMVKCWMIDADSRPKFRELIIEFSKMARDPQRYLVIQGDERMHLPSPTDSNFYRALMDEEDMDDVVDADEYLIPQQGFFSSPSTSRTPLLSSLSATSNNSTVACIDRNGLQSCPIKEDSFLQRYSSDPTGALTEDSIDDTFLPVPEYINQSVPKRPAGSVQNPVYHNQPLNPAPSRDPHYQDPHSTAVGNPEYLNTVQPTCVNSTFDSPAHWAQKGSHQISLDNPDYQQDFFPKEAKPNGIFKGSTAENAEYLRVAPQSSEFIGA
# UniProt Q5S007: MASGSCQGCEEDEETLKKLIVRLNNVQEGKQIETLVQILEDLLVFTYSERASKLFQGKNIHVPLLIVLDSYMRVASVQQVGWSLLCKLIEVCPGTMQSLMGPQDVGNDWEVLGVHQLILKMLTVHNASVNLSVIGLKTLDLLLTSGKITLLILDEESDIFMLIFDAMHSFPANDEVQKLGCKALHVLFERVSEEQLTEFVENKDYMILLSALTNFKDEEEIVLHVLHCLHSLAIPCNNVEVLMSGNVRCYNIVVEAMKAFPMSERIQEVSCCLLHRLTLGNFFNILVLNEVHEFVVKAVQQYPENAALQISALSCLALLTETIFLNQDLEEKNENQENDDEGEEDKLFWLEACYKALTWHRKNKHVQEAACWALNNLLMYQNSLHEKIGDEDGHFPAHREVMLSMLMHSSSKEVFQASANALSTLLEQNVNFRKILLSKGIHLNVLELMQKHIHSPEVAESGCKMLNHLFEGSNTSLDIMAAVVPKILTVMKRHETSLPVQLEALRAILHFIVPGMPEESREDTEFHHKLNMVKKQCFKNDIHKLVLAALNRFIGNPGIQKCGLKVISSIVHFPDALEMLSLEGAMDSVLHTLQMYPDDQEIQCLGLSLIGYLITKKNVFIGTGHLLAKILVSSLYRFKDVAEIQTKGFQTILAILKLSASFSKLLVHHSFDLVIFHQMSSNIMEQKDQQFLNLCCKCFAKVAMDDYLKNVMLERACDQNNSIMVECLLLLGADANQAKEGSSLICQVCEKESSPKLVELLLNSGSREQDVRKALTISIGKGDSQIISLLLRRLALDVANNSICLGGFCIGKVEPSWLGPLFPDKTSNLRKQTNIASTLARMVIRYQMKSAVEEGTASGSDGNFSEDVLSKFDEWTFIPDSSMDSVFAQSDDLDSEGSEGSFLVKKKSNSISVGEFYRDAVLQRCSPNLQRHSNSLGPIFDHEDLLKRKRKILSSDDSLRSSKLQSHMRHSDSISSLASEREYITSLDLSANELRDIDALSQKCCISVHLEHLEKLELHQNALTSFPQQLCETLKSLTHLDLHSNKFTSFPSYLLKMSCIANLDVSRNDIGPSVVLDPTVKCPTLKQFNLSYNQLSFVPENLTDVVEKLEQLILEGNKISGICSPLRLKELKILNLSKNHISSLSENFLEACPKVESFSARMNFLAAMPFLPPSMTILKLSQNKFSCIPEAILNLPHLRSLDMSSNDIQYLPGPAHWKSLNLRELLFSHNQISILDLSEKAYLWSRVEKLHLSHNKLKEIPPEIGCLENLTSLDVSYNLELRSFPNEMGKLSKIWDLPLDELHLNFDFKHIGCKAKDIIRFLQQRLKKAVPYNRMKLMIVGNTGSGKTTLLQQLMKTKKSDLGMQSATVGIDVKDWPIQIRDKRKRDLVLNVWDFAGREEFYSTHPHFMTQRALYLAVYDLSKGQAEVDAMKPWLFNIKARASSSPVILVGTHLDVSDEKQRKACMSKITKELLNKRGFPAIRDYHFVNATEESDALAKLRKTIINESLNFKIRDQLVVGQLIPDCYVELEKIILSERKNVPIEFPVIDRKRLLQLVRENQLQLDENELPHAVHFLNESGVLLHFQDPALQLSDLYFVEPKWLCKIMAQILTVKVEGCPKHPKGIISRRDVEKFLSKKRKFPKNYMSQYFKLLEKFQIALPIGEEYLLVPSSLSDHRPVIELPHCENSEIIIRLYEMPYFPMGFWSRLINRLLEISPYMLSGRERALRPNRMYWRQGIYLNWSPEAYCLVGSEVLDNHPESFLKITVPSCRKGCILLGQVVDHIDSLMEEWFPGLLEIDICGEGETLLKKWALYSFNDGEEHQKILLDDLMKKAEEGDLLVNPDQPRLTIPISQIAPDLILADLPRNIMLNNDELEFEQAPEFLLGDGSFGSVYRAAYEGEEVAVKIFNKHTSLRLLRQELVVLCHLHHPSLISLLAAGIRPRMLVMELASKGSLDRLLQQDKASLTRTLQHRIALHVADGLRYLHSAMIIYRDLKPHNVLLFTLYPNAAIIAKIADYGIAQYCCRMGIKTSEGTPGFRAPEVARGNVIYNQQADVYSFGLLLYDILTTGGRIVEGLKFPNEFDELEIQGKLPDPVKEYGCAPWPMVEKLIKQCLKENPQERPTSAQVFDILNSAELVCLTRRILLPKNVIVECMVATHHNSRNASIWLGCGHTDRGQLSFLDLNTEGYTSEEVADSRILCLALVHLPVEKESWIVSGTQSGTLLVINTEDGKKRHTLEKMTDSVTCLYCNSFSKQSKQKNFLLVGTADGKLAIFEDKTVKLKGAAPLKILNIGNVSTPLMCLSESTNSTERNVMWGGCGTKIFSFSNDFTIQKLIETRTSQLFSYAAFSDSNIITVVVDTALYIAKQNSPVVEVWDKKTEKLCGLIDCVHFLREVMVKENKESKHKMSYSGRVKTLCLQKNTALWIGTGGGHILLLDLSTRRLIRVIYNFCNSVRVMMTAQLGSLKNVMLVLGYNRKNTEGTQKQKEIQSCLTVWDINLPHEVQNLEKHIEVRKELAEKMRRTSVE
# UniProt P50613: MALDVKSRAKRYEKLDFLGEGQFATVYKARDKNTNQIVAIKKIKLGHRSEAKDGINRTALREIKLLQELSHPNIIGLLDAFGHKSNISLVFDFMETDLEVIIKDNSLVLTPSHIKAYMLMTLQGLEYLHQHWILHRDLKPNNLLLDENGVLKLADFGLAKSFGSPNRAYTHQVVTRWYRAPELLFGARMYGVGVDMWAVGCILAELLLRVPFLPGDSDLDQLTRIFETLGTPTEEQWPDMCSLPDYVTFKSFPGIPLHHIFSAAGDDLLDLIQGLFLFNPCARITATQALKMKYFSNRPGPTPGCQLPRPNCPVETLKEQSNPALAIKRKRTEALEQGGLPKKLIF
# UniProt O43293: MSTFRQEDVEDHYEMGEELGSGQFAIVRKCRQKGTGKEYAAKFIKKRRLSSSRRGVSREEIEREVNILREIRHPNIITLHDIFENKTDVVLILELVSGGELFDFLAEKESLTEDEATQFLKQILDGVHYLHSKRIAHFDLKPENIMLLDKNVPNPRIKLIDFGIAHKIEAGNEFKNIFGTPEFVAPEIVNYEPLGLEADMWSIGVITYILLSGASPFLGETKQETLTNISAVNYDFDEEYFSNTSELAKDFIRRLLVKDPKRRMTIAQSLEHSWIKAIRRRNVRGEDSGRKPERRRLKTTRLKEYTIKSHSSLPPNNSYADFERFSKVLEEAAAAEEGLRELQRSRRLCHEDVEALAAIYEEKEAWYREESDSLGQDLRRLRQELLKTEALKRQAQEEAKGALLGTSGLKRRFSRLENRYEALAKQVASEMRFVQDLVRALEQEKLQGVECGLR
# UniProt Q16659, whole entry: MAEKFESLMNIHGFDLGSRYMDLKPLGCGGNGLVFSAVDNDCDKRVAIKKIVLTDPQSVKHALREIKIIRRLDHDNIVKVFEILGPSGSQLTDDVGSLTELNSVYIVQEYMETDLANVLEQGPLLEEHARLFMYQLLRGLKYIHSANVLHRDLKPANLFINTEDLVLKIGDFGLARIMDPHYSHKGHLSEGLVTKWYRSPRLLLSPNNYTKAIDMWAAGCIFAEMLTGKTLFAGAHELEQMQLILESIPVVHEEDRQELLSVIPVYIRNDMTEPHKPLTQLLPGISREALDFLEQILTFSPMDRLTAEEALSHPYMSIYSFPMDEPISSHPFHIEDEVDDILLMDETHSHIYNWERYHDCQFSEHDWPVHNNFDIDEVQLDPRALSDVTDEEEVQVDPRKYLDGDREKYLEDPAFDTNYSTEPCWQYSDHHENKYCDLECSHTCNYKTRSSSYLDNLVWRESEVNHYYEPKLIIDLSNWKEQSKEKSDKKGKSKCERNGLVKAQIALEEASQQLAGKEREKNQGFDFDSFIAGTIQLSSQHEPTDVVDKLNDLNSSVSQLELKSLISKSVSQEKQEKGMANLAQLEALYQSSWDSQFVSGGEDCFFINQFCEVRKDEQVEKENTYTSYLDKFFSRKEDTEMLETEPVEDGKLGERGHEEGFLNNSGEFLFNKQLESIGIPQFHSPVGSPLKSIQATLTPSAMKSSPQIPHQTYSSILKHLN
# UniProt P50750, whole entry: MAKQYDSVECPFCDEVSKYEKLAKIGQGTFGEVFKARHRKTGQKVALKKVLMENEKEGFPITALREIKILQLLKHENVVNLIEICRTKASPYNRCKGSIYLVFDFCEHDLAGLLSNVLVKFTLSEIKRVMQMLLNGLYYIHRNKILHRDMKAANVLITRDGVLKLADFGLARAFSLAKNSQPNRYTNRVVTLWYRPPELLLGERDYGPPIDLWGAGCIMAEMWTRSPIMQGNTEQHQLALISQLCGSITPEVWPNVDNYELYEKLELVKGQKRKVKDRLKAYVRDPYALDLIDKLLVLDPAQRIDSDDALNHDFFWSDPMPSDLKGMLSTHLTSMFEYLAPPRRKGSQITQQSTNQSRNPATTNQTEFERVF
# UniProt Q04759: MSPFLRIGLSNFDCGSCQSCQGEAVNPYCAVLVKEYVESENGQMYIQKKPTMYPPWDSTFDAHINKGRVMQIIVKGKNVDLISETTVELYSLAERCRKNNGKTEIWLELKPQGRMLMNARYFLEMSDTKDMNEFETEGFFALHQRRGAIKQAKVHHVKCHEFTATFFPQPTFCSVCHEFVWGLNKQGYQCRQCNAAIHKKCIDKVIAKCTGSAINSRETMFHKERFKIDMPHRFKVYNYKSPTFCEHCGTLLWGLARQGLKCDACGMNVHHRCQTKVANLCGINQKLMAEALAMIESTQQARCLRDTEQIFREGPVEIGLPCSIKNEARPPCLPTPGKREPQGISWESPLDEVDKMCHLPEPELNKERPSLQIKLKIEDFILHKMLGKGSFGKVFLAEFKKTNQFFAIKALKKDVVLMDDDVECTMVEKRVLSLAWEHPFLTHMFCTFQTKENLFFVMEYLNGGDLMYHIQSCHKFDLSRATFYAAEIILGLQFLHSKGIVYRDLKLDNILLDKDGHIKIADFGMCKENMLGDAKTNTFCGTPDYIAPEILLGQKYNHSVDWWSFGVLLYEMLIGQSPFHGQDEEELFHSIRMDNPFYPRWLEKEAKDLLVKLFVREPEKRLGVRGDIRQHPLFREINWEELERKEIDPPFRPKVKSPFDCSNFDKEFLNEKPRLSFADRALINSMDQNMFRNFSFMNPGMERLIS
# Legend:
# Test in all cases: apparent dissociation constant pKd app (kinobead competition) (-log10(M)); higher = stronger binding
# EGFR = EGFR (UniProt P00533)
# STK17B = molecular target: T1, STK17B (UniProt O94768)
# T1 sequence (whole entry): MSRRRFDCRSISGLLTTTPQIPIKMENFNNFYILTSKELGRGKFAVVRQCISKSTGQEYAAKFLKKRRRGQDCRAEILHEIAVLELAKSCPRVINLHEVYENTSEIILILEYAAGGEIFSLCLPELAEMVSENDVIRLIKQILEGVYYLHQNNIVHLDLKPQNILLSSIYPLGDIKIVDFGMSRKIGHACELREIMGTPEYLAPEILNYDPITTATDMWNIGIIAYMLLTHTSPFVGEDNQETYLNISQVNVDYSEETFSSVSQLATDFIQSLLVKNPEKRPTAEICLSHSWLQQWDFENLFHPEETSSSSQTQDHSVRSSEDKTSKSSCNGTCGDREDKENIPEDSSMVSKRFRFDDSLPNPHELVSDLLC
# RPS6KA4 = RPS6KA4 (UniProt O75676)
# CAMK2B = CAMK2B (UniProt Q13554)
# LRRK2 = LRRK2 (UniProt Q5S007)
# CDK7 = CDK7 (UniProt P50613)
# EPHB3 = molecular target: T2, EPHB3 (UniProt P54753)
# T2 sequence (whole entry): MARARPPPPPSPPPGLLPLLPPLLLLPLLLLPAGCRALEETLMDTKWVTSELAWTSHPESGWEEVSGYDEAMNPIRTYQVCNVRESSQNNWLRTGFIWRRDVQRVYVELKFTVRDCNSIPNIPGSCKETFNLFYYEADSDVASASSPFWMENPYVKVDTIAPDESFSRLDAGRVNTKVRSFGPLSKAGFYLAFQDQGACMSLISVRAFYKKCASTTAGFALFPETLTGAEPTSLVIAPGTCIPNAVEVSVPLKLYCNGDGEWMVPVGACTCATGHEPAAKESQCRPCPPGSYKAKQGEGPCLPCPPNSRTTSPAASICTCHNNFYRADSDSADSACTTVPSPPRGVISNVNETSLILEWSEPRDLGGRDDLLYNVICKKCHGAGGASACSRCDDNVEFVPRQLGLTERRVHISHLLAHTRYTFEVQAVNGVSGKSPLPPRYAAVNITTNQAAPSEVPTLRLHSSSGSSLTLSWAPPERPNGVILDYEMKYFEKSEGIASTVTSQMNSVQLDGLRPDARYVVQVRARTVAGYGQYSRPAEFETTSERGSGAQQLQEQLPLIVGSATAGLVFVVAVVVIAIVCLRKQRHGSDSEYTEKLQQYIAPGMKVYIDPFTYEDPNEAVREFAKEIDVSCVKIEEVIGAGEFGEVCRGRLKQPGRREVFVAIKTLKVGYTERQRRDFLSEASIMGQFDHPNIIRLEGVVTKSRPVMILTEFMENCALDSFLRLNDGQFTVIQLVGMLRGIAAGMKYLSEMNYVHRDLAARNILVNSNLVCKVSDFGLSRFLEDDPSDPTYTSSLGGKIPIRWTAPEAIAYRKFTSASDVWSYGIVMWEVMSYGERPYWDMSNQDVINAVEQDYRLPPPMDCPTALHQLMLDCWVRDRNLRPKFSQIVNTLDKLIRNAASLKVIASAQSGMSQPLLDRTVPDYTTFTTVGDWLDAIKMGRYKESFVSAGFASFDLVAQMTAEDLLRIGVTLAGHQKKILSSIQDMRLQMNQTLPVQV
# DAPK3 = DAPK3 (UniProt O43293)
# NEK3 = molecular target: T3, NEK3 (UniProt P51956)
# T3 sequence (whole entry): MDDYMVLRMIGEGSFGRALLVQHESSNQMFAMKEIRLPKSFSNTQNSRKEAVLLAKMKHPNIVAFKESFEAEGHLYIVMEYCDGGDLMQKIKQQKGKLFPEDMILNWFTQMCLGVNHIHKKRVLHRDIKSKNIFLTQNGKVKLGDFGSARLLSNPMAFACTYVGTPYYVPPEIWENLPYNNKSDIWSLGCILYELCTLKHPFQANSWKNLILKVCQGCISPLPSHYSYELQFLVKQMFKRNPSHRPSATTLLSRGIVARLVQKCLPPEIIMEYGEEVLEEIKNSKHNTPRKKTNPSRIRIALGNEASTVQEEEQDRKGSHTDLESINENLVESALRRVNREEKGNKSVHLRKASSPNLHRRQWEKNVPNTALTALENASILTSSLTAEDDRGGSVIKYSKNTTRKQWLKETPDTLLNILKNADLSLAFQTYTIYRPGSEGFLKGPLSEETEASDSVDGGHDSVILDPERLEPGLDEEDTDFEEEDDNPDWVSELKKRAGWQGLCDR
# MAPK6 = MAPK6 (UniProt Q16659)
# CDK9 = CDK9 (UniProt P50750)
# STK38 = STK38 (UniProt Q15208)
# PRKCQ = PRKCQ (UniProt Q04759)
Structure (SMILES),apparent dissociation constant pKd app (-log10) (EGFR),apparent dissociation constant pKd app (-log10) (STK17B),apparent dissociation constant pKd app (-log10) (RPS6KA4),apparent dissociation constant pKd app (-log10) (CAMK2B),apparent dissociation constant pKd app (-log10) (LRRK2),apparent dissociation constant pKd app (-log10) (CDK7),apparent dissociation constant pKd app (-log10) (EPHB3),apparent dissociation constant pKd app (-log10) (DAPK3),apparent dissociation constant pKd app (-log10) (NEK3),apparent dissociation constant pKd app (-log10) (MAPK6),apparent dissociation constant pKd app (-log10) (CDK9),apparent dissociation constant pKd app (-log10) (STK38),apparent dissociation constant pKd app (-log10) (PRKCQ)
NC(=O)c1cccc2cn(-c3ccc([C@@H]4CCCNC4)cc3)nc12 [Niraparib],< 4.5,< 4.6,< 4.6,< 4.9,< 4.7,< 4.5,< 4.5,< 4.5,< 4.6,< 4.5,< 4.7,< 4.5,< 4.5
Cn1ncnc1[C@H]1c2n[nH]c(=O)c3cc(F)cc(c23)N[C@@H]1c1ccc(F)cc1 [Talazoparib],< 4.5,< 4.6,< 4.6,< 4.9,< 4.7,< 4.5,< 4.5,< 4.5,< 4.6,< 4.5,< 4.7,< 4.5,< 4.5
O=C(c1cc(Cc2n[nH]c(=O)c3ccccc23)ccc1F)N1CCN(C(=O)C2CC2)CC1 [Olaparib],< 4.5,< 4.6,< 4.6,< 4.9,< 4.7,< 4.5,< 4.5,< 4.5,< 4.6,< 4.5,< 4.7,< 4.5,< 4.5
